Experimental findings from patent publication US20250129048A1, “MELANOCORTIN 4 RECEPTOR ANTAGONISTS AND USES THEREOF” (Pfizer Inc., priority 2021, published 2025) are described below.

By UniProt entry, the sequences of proteins in these tests, tags left out.
UniProt P32245, whole entry: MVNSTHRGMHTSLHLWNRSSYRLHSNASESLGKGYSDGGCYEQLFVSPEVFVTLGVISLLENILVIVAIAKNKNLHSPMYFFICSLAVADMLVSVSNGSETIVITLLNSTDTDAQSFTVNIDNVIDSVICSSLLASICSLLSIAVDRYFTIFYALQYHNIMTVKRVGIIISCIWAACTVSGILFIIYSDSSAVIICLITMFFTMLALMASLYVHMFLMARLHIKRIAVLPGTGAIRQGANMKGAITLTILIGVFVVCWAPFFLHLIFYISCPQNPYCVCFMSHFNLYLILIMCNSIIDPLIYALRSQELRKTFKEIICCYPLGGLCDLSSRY

One assay deals with hMC4R (Homo sapiens (Human), UniProt P32245). Kind of assay: In vitro binding affinity assay using hMC4R (radioligand competition binding, CHO cell membranes). The following applies: competition with [125I]-(Nle4, D-Phe7)-α-MSH 0.5 nM; Ki from IC50 by Cheng-Prusoff; read-out: Ki (nM) geometric mean. The protocol: The binding affinity of test compounds at the α-melanocyte-stimulating hormone receptor (hMC4R) was assessed using a radioligand competition binding assay. Recombinant Chinese hamster ovaries (CHO) cells stably expressing hMC4R (PerkinElmer #ES-191-C) were used for competitive binding. hMC4R membranes were grown in Dulbecco's Modified Essential Medium and Ham's F-12 Medium (DMEM/F12), 10% heat inactivated fetal bovine serum (FBS), 0.4 mg/mL Geneticin and 2 mM L-glutamine. Cell membranes were bulked and frozen until the assay was performed.
Compounds were solubilized in 100% dimethyl sulfoxide (DMSO) to a concentration of 30 mM. A 10-point intermediate dilution series using half log dilutions was created in 100% DMSO with a top concentration of 0.03 mM. […] The exact concentration of radioligand used for each experiment was determined by liquid scintillation counting and adjusted if necessary. […]
The raw data (expressed as counts per minute) were analyzed using ActivityBase (IDBS Data Management Software). […] Equilibrium dissociation constant for inhibitor of ligand and receptor interaction (Ki) values were then calculated from the IC50 values using the Cheng-Prusoff equation: Ki=IC50/(1+([L]/Kd)), where [L] is the concentration of the radioligand used in the experiment and Kd is the affinity of the radioligand (determined in separate saturation experiments).

Assay [1] has as its target human Melanocortin-4 receptor (MC4R) (Homo sapiens (Human), UniProt P32245). Kind of assay: Functional in vitro MC4R antagonist potency assay (intracellular cAMP, HTRF, CHO cells). The following applies: cAMP after EC80 agonist stimulation (200 nM αMSH); Kb from IC50 by Leff-Dougall equation; read-out: Kb (nM) Antagonist geometric mean. The assay is classed as cell-based. How it is done:
The functional in vitro antagonist potency for test compounds was determined by monitoring intracellular cyclic adenosine monophosphate (cAMP) levels in Chinese hamster ovary (CHO—) cells stably expressing the human Melanocortin-4 receptor (MC4R). Following agonist activation, human MC4R associates with the G-protein complex causing the Ga subunit to exchange bound GDP for GTP, followed by dissociation of the Gα-GTP complex. The activated Ga subunit can couple to downstream effectors to regulate the levels of second messengers or cAMP within the cell. Thereby, determination of intracellular cAMP levels allows for pharmacological characterization. Intracellular cAMP levels are quantitated using a homogenous assay utilizing the Homogeneous Time-Resolved Fluorescence (HTRF) technology from CisBio. The method is a competitive immunoassay between native cAMP produced by cells and the cAMP labelled with the acceptor dye, d2. […]
In-house generated CHO cells stably expressing the Gs-coupled human MC4R receptor were plated in 384-well assay plates (Corning, Cat No. 3570) in 50 μL/well of Ham's F-12 containing 10% heat inactivated FBS, 1× penicillin/streptomycin, 1 mM Glutamax (Invitrogen) at a density of 2,500 cells per well and incubated at 37° C. […] Intracellular cAMP levels were quantified as per Cisbio's protocol (5 μL of D2 and then 5 μL Cryptate, incubated for 1-2 hours at room temperature). […]

As to `COc1cc([C@@H](C)C(=O)N2CC[C@H](Nc3ccc(-c4nc(C(F)F)n(C)n4)c(C)n3)C2)c(F)cn1` [Example 7, (2R)-1-[(3S)-3-({5-[5-(difluoromethyl)-1-methyl-1H-1,2,4-triazol-3-yl]-6-methylpyridin-2-yl}amino)pyrrolidin-1-yl]-2-(5-fluoro-2-methoxypyridin-4-yl)propan-1-one], at hMC4R, the Ki stood at 0.77 nM. Moreover, in assay [1], the Kb turned out to be 3.3 nM.
Consider `[2H]C([2H])([2H])n1nc(-c2ccc(N[C@H]3CCN(C(=O)[C@H](C)c4cc(OC)ncc4F)C3)nc2C)nc1C(F)F` [Example 17, (2R)-1-[(3S)-3-({5-[5-(difluoromethyl)-1-(^2H3)methyl-1H-1,2,4-triazol-3-yl]-6-methylpyridin-2-yl}amino)pyrrolidin-1-yl]-2-(5-fluoro-2-methoxypyridin-4-yl)propan-1-one], for which the antagonist equilibrium constant (Kb) in assay [1] amounted to 2 nM.
